Results as given in patent US10065989B2, “Molecular sleds and uses thereof” (The Broad Institute, Inc., priority 2012, dated 2018).

Test system: lambda DNA
Experiment: Single-molecule DNA sliding assay on flow-stretched DNA (TIRF microscopy)
Set-up: species or system bacteriophage lambda
Settings: Cy3b-labeled peptide, pH 7.5, 100 pM
Excerpt: To determine whether AVP-pVIc complexes slide on DNA, Applicants used single-molecule fluorescence microscopy (FIG. 10C) with flow-stretched DNA, (FIG. 10D,E) (Kabata, H. et al. Visualization of single molecules of RNA polymerase sliding along DNA. Science 262, 1561-3 (1993); Harada, Y. et al. Single-molecule imaging of RNA polymerase-DNA interactions in real time. Biophys. J. 76, 709-715 (1999) and Blainey, P. C., van Oijen, A. M., Banerjee, A., Verdine, G. L. & Xie, X. S. A base-excision DNA-repair protein finds intrahelical lesion bases by fast sliding in contact with DNA. Proc Natl Acad Sci USA 103, 5752-7 (2006)). […] Biochemistry 40, 13237-13245 (2001)), and furthermore to diffuse rapidly over tens of thousands of base pairs before dissociating from the DNA. […] Despite the optical resolution limit imposed by diffraction, the centroid position of each signal in each frame was determined with 11 nm spatial precision at 3.5 ms time resolution (Gelles, J., Schnapp, B. J. & Sheetz, M. P. Tracking kinesin-driven movements with nanometer-scale precision. Nature 331, 450-3 (1988) and Thompson, R. E., Larson, D. R. & Webb, W. W. Precise nanometer localization analysis for individual fluorescent probes. Biophys J 82, 2775-83 (2002)), FIG. 12B. […]
Due to the speed and duration of sliding by AVP-pVIc complexes, these events were readily identifiable manually. […]

For N=C(N)NCCC[C@H](NC(=O)[C@H](CCCNC(=N)N)NC(=O)[C@H](CCCNC(=N)N)NC(=O)[C@@H](N)CCCCN)C(=O)N[C@@H](CS)C(=O)N[C@@H](Cc1ccccc1)C(=O)O [KRRRCF], the Average diffusion coefficient was 25×10^6 bp^2/sec.
